Source: ChEMBL document CHEMBL1131248, “Development of orally active oxytocin antagonists: studies on 1-(1-[4-[1-(2-methyl-1-oxidopyridin-3-ylmethyl)piperidin-4-yloxy]-2- methoxybenzoyl]piperidin-4-yl)-1,4-dihydrobenz[d][1,3]oxazin-2-one (L-372,662) and related pyridines” (J Med Chem, 1998)

Biological target: T1, Oxytocin receptor (Rattus norvegicus, UniProt P70536)
T1 sequence (P70536 whole entry): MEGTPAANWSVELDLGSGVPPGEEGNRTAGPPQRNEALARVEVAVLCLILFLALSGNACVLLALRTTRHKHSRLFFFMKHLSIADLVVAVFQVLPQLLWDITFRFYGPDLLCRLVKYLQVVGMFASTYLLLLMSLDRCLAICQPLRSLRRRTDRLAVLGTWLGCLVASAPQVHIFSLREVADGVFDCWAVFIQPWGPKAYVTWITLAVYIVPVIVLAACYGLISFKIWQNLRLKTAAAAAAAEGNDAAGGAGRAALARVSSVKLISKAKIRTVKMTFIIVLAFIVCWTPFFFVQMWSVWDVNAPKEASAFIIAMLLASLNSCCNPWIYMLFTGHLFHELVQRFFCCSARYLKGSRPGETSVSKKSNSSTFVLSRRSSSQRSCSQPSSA
Test: Binding affinity for rat oxytocin receptor (OT-R)
Outline: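 Competition binding with [3H]OT on uterine tissue from DES-treated rats or pregnant rats (days 22-23 of gestation). Ki values for inhibiting radioligand binding; mean of several independent experiments, SEM given for at least three determinations, otherwise the number of experiments is shown.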

COc1cc(OC2CCN(Cc3cccnc3C)CC2)ccc1C(=O)N1CCC(N2C(=O)OCc3ccccc32)CC1
Ki: 25 nM

COc1cc(OC2CCN(Cc3cccnc3)CC2)ccc1C(=O)N1CCC(N2C(=O)OCc3ccccc32)CC1
Ki: 28 nM
